Columns and labels:
[1] = set-up: species or system Rats (OFA, Sprague-Dawlay); settings: rat, in vivo
Procedure: The stick gum administered to Rats contains 5 mg of vegetal extract titrated at 25% of anthocyanosides (i.e. 1.250 μg of anthocyanosides). The Sprague Dawley rat (10 Males) used extensively in medical research weighing 450-520 g were received and placed separately in cage in room temperature controlled (22° C.). This rat species is chose for its calmness and its easy handling. […] J. Nutr 2002). As anthocyanins are particularly susceptible to pH variations and are unstable at intestinal pH, collected samples were analyzed by HPLC after acidification with 240 mmol/L HCl, to allow the comparison with intestinal administration. […] Spectrum was compared to Cyanidin 3-glucoside that represent 98% of total anthocyanins. […] Anthocyanin metabolites were detected according to the respective m/z values of their parent and product ions. Absorption from mucosal epithelium and serum was estimated by calculating the difference between anthocyanin quantity contained in buccal gum patch administered and the amount recovered at the end in samples. Rats (OFA, Sprague-Dawlay) received a lingual administration of anthocyanins with an orodispersible gum containing 1.25 mg of anthocyanin. The stick gum was deposited at the buccal mucosa area. […] After acidification, plasma samples were conserved at -80° C. and analyzed by LC-MS/MS (Liquid Chromatography-Mass Spectrometer/Mass Spectrometer). In parallel, epithelium and conjunctive tissues were collected 45 minutes post-administration, placed in formic acid and eventually conserved at -80° C. Before LC-MS/MS analyze, tissues were washed in PBS (phosphate buffered saline) and homogenized on ice. Protein concentrations were determined by Lowry method. […] Absorption was estimated by calculating the administering/recovering anthocyanosides estimated concentration in samples ratio. Quantification was adjusted in respect of residual anthocyanoside quantity contained in buccal washing (anthocyanosides extracted from stick gum not absorbed and residual non dissolved stick gum).

[2] = Digestive versus sublingual absorption, plasmatic level 1 hour after administration; set-up: species or system Rats; settings: rat, in vivo
Procedure: Taurin and Lutein plasmatic level are evaluated using HPLC process as described Lallemand F. et al, 2004 and Shanmugam S, et al, 2011, respectively.

Anthocyanin
Anthocyanin (μg/ml of plasma), Mean +/- SEM [1]: 212 +/− 9 μg/ml of plasma
absorption of anthocyanin, lingual way as compared to the digestive way [1]: more effective
amount of absorbed anthocyanin, 25% extract by lingual route versus 50% extract by digestive route [1]: greater
calculated absorption of anthocyanin, lingual route versus digestive route [1]: more than 10 fold
absorption, lingual way as compared to the digestive way [2]: more effective

Reference: US20130115174A1, “TRANSMUCOSAL COMPOSITION CONTAINING ANTHOCYANINS FOR ALLEVIATING A VISUAL DISCOMFORT” (priority 2010, published 2013)
